These results are taken from PMC6172315, “Relative Selectivity of Plant Cardenolides for Na^+/K^+-ATPases From the Monarch Butterfly and Non-resistant Insects” (Frontiers in Plant Science, 2018).

Chains of the proteins cited; added tags and fusions are not shown. Residues count along the entry.
UniProt K0G7C4, 1-1009: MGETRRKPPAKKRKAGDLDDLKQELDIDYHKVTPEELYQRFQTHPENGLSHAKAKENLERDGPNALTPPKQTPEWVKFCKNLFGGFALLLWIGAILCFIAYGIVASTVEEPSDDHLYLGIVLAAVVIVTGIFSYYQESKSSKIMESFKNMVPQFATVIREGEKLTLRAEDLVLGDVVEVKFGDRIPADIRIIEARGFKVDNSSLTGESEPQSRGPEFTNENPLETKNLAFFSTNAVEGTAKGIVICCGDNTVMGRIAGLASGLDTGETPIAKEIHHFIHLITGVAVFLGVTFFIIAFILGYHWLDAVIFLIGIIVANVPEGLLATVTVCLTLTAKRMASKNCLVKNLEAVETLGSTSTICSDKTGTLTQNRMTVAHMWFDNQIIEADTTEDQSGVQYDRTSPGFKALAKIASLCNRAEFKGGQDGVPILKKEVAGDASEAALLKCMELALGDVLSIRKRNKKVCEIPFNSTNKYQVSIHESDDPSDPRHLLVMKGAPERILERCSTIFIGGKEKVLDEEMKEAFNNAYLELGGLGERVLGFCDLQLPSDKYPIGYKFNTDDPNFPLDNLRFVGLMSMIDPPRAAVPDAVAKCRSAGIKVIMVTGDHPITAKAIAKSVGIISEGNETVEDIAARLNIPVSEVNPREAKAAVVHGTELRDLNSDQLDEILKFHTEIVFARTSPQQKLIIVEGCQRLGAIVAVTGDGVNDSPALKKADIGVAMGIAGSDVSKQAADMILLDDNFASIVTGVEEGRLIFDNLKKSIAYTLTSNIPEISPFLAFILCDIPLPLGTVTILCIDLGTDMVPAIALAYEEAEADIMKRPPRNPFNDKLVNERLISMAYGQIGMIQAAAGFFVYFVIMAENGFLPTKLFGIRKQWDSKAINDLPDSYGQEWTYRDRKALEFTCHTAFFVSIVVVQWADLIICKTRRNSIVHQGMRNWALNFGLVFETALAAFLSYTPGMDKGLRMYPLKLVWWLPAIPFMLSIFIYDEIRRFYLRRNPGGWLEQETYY

Test [1] deals with lamb Na^+/K^+-ATPase. Briefly: Fold differences of IC50 between lamb and insect Na+/K+-ATPases. It is filed as biochemical. As to conditions: lamb IC50 inferred from ref Paula et al., 2005; for fold difference between IC50 values, lamb vs adapted insect (D. plexippus) Na^+/K^+-ATPase: Figure 2, first number; for fold difference between IC50 values, lamb vs non-adapted insect (E. core/S. gregaria) Na^+/K^+-ATPase: Figure 2, second number.

The target of test [2] is D. plexippus-Na^+/K^+-ATPase (Danaus plexippus, UniProt K0G7C4). Kind of test: In vitro inhibition assay of D. plexippus Na+/K+-ATPase (phosphate release). It is filed as biochemical. As to conditions: for fold difference between IC50 values, non-adapted (E. core/S. gregaria) vs adapted (D. plexippus) insect Na^+/K^+-ATPase: Figure 2, last number, S. gregaria values used for ouabain and digitoxigenin.

For the molecule `C[C@]12CC[C@H](O)C[C@H]1CC[C@@H]1[C@@H]2CC[C@]2(C)[C@@H](C3=CC(=O)OC3)CC[C@]12O`, in test [1], the “fold difference between IC50 values, lamb vs adapted insect (D. plexippus) Na^+/K^+-ATPase” value is listed as 229 x and the “fold difference between IC50 values, lamb vs non-adapted insect (E. core/S. gregaria) Na^+/K^+-ATPase” value is listed as 25 x. Moreover, in test [2], the “fold difference between IC50 values, non-adapted (E. core/S. gregaria) vs adapted (D. plexippus) insect Na^+/K^+-ATPase” value is 9 x.

As for `C[C@]12CC[C@H](O)C[C@H]1CC[C@@H]1[C@@H]2C[C@@H](O)[C@]2(C)[C@@H](C3=CC(=O)OC3)CC[C@]12O` [digoxigenin], in test [1], the “fold difference between IC50 values, lamb vs adapted insect (D. plexippus) Na^+/K^+-ATPase” value is 2240 x and the “fold difference between IC50 values, lamb vs non-adapted insect (E. core/S. gregaria) Na^+/K^+-ATPase” value came to 69 x. For the same molecule, in test [2], the “fold difference between IC50 values, non-adapted (E. core/S. gregaria) vs adapted (D. plexippus) insect Na^+/K^+-ATPase” value stood at 32 x.

Consider `CO[C@H]1C[C@H](O[C@H]2CC[C@@]3(C)[C@H](CC[C@@H]4[C@@H]3CC[C@]3(C)[C@@H](C5=CC(=O)OC5)[C@@H](OC(C)=O)C[C@]43O)C2)O[C@@H](C)[C@@H]1O` [oleandrin], for which, in test [1], the “fold difference between IC50 values, lamb vs adapted insect (D. plexippus) Na^+/K^+-ATPase” value was found to be 20 x and the “fold difference between IC50 values, lamb vs non-adapted insect (E. core/S. gregaria) Na^+/K^+-ATPase” value was determined as 5 x. In addition, in test [2], the “fold difference between IC50 values of non-adapted insect and D. plexippus-Na^+/K^+-ATPase” value is “fourfold”; the “fold difference between IC50 values, non-adapted (E. core/S. gregaria) vs adapted (D. plexippus) insect Na^+/K^+-ATPase” value came out at 4 x.

`C[C@@H]1O[C@@H](O[C@H]2C[C@@H](O)[C@]3(CO)[C@H]4[C@H](O)C[C@]5(C)[C@@H](C6=CC(=O)OC6)CC[C@]5(O)[C@@H]4CC[C@]3(O)C2)[C@H](O)[C@H](O)[C@H]1O` [ouabain, reference compound]: in test [1], the “fold difference between IC50 values, lamb vs adapted insect (D. plexippus) Na^+/K^+-ATPase” value is 450 x and the “fold difference between IC50 values, lamb vs non-adapted insect (E. core/S. gregaria) Na^+/K^+-ATPase” value worked out at 5 x. In test [2], the “fold difference between IC50 values of non-adapted insect and D. plexippus-Na^+/K^+-ATPase” value came out at 94 fold; the “fold difference between IC50 values, non-adapted (E. core/S. gregaria) vs adapted (D. plexippus) insect Na^+/K^+-ATPase” value came out at 94 x.

As to `CC12CCC(O)CC1CCC1C2CCC2(C)C(C3=CC(=O)OC3)CCC12O` (stereo not drawn) [uzarigenin], in test [1], the “fold difference between IC50 values, lamb vs adapted insect (D. plexippus) Na^+/K^+-ATPase” value is 56 x and the “fold difference between IC50 values, lamb vs non-adapted insect (E. core/S. gregaria) Na^+/K^+-ATPase” value was 16 x. Further, in test [2], the “fold difference between IC50 values of non-adapted insect and D. plexippus-Na^+/K^+-ATPase” value is listed as “fourfold”; the “fold difference between IC50 values, non-adapted (E. core/S. gregaria) vs adapted (D. plexippus) insect Na^+/K^+-ATPase” value turned out to be 4 x.
